## Ab-14 light chain CDR variants: yeast mating affinities

Target peptide (SARS-CoV-2 spike, HR2 region): PDVDLGDISGINAS

Ab-14 is the parent antibody, in scFv form: VH, then a 15-residue (Gly4Ser)3 linker, then VL. The heavy chain is unchanged in all variants.
VH: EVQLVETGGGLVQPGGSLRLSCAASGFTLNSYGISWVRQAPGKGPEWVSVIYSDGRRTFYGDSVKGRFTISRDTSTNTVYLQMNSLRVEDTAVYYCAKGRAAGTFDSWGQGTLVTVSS
VL: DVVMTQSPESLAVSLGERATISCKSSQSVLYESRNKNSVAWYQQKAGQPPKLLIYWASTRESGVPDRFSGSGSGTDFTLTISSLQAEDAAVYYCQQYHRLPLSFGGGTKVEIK

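In library AAYL50, one, two or three CDR residues were substituted; doubles and triples were drawn at random. In AlphaSeq, yeast of one mating type display the scFv and yeast of the other type display the target. Mating (16 h, 30 °C) was followed by selection of diploids and sequencing of their barcodes. Scores were corrected for input abundance and mapped to Kd with protein pairs of known affinity run in the same pool. There are three technical replicates.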

Changes read parent residue, position, new residue, counted from the first residue of the VL shown.
Affinities are written as log10 Kd with Kd in nM; a lower number is a better binder.
Replicates are averaged; those with no signal do not enter the mean.
A pair that was not seen in that replicate is written "ND"; this usually means weak binding, but a binder can also be missed.
In this assay the parent's reference entry averaged 0.65; its copy inside this library read 1.68.
Nonspecific signal, from three strains lacking the peptide, appeared in 18% of pairings of library AAYL50, centred on 4.19 (5% of these signals below 2.99); values are not corrected for it. The control count says in how many pairings with the empty strains this scFv gave a signal, with their mean in brackets.

changes	log10 Kd, replicates	log10 Kd (nM), mean	signal with controls
A40M	ND ND ND	ND	1 of 9 (3.36)
V29I/W56Y/S62T	0.24 0.53 0.30	0.36	2 of 9 (4.35)
N35M/S62W/H98K	2.51 3.38 4.64	3.51	2 of 9 (4.08)
Y31A/K36M/S58R	0.55 0.87 0.64	0.68	0 of 9
S33V/K36P/E61K	ND ND ND	ND	2 of 9 (2.63)
S25F/N37Q/Y97Q	0.81 0.90 0.62	0.78	0 of 9
N37G/A57I/L100D	ND 5.64 ND	5.64	2 of 9 (4.26)
S26C/Q27T/A57E	ND ND ND	ND	0 of 9
Q27R/S33K/P101E	ND ND ND	ND	1 of 9 (4.58)
S26M/V29M	2.53 3.63 3.05	3.07	0 of 9
S33V/W56V/S58Q	ND 4.48 ND	4.48	0 of 9
S25N/S28L/S33E	ND 2.48 ND	2.48	0 of 9
Y31W/V39D/Q95H	3.63 4.43 4.70	4.25	4 of 9 (4.06)
S28V/R34I/S103L	3.26 3.53 4.13	3.64	1 of 9 (3.60)
W56D/Q95Y	2.57 2.44 2.76	2.59	1 of 9 (5.02)
Y31I/R60W/Y97R	ND ND ND	ND	0 of 9
S28Q/A57R	3.29 3.88 3.77	3.65	0 of 9
Y31E/A40I/E61W	ND ND ND	ND	0 of 9
K24P/L100I/L102D	ND ND 3.03	3.03	0 of 9
S38M/E61T/R99C	ND ND ND	ND	1 of 9 (3.53)
N37A/L100Q/L102N	ND ND 3.55	3.55	0 of 9
S25G/A40R/T59Q	ND ND ND	ND	2 of 9 (4.35)
R34M/A57N/S62E	2.69 2.70 2.81	2.74	1 of 9 (2.90)
S26G/Q95K/L102D	ND ND 4.61	4.61	0 of 9
N35E/A57M/P101Q	ND ND ND	ND	2 of 9 (3.73)
S38R/W56C/E61G	4.85 2.47 ND	3.66	0 of 9
Y31C/S33L/R34N	3.27 2.33 2.88	2.83	2 of 9 (3.42)
K36P/S38T/Q95R	ND 3.02 ND	3.02	1 of 9 (3.29)
V29P/L30H/A40E	ND 3.29 ND	3.29	2 of 9 (4.24)
L30R/Y31N/E32S	2.73 ND ND	2.73	0 of 9
V29I/T59Y/R60L	3.60 3.03 4.66	3.76	1 of 9 (4.63)
Y31T/W56V/H98Q	2.78 3.38 3.54	3.24	4 of 9 (3.87)
A40M/P101W/S103P	ND ND ND	ND	0 of 9
P101W	3.56 3.34 ND	3.45	3 of 9 (4.55)
W56D	0.29 0.89 1.05	0.74	0 of 9
E61Y/Q96S/H98W	1.55 1.31 1.98	1.61	1 of 9 (4.47)
K24V/S26V/A40G	ND ND ND	ND	0 of 9

Picked from the list: the 4 lowest averages where every replicate gave a value.

{"changes": "V29I/W56Y/S62T", "log10 Kd, replicates": "0.24 0.53 0.30", "log10 Kd (nM), mean": "0.36", "signal with controls": "2 of 9 (4.35)"}
{"changes": "Y31A/K36M/S58R", "log10 Kd, replicates": "0.55 0.87 0.64", "log10 Kd (nM), mean": "0.68", "signal with controls": "0 of 9"}
{"changes": "W56D", "log10 Kd, replicates": "0.29 0.89 1.05", "log10 Kd (nM), mean": "0.74", "signal with controls": "0 of 9"}
{"changes": "S25F/N37Q/Y97Q", "log10 Kd, replicates": "0.81 0.90 0.62", "log10 Kd (nM), mean": "0.78", "signal with controls": "0 of 9"}

Values reported by Engelhart et al. 2022, doi:10.1038/s41597-022-01779-4 (FLAb copy).